## AlphaSeq binding of Ab-14 light chain variants to a spike HR2 peptide

Data: MIT Lincoln Laboratory AlphaSeq set, Engelhart et al. 2022, doi:10.1038/s41597-022-01779-4, as distributed in FLAb.

The target is the same throughout: PDVDLGDISGINAS, from the HR2 region of SARS-CoV-2 spike.

The variants keep the heavy chain, the linker and the frameworks of Ab-14 (scFv order VH, a (GGGGS)3 linker, VL).
VH: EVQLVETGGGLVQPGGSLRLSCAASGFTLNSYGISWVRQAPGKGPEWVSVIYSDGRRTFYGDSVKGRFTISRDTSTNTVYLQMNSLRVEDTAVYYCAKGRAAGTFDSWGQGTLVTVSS
VL: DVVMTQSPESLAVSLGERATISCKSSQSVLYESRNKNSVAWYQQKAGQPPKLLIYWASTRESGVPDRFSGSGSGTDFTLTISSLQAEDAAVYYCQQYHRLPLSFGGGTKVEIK

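The starting antibody came from a phage panning campaign against this peptide. AAYL50 was designed without a model: most single CDR substitutions and a random sample of double and triple ones. The assay is AlphaSeq: two haploid yeast populations carry antibody and antigen on their surface. After mating in shaken culture at 30 °C for 16 h, diploids were selected and their barcode pairs sequenced. Scores were corrected for input abundance and mapped to Kd with protein pairs of known affinity run in the same pool. The assay was run in three technical replicates.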

Each variant is given by its three light chain CDRs, as the data file delimits them; those of the parent are KSSQSVLYESRNKNSVA, WASTRES, QQYHRLPLS. Every variant below is changed at A57 of the VL (sequential numbering). Kd is apparent (estimated from mating counts) and averaged on the log scale over replicates with a signal. Smaller is tighter. "nd" means that the variant was in the library but no mating with the target was seen in any replicate; the authors take this as a sign of poor binding, and no number exists. As a blank, each scFv also met three strains without target: over library AAYL50, 18% of these pairings were detected, typically at 15 µM and seldom below 970 nM. The control count says in how many pairings with the empty strains this scFv gave a signal.

CDR-L1	CDR-L2	CDR-L3	Kd	seen in	signal with controls
KSSQSVLYESRNKNSVA	WQSTHES	QQIHRLPLS	26 µM	2/3	1/9
KSSQSVLYESRYKNSVA	WISTRES	QQKHRLPLS	nd	0/3	0/9
KSSQSVLYESRNKDSKA	WNSTRES	QQYHRLPLS	nd	0/3	1/9
KSSQSVLYESRNKNSVA	EPSTRES	QQYHNLPLS	8.9 µM	3/3	6/9
KSSQSVLYEHRNKNSVA	WPYTRES	QQYHRLPLS	32 µM	1/3	1/9
HSSQSVLYESRNKNSVA	WLSTRES	QFYHRLPLS	19 µM	1/3	6/9
YSSQSVLYESRNKNSVA	IKSTRES	QQYHRLPLS	54 µM	2/3	4/9
KSSASVLYESRNKNSVA	WGSTRES	QQYHRLPLK	nd	0/3	1/9
KSSQVVLYEVRNKNSVA	WQSTRES	QQYHRLPLS	5.0 mM	1/3	5/9
KSSQSVFYESRNKNTVA	WISTRES	QQYHRLPLS	nd	0/3	0/9
KSSQCVLYESRNKNSVA	WECTRES	QQYHRLPLS	nd	0/3	1/9
KSSQSVLYESRNKNSVA	WRSKRES	QHYHRLPLS	9.0 µM	2/3	3/9
KSSQSVLYESRNKNSVF	WHSTRES	QQYKRLPLS	nd	0/3	0/9
KSSQSCLYESRNKNSVA	HGSTRES	QQYHRLPLS	14 nM	3/3	2/9
KSSQSVLYESRNKNSVA	WMRTRES	QQYHRQPLS	nd	0/3	0/9
KSSQSVLYESRNKNSVA	WCSTRES	QQNHRLPRS	1.7 µM	2/3	1/9
KSSQSVLYMSCNKNSVA	WGSTRES	QQYHRLPLS	70 nM	3/3	4/9
KSSQSDLPESRNKNSVA	WISTRES	QQYHRLPLS	740 nM	3/3	1/9
KSSQSVLYESRVKNSVA	WFSTRES	QQYHRLPVS	nd	0/3	0/9
KSSQSVLYLSRNKNSVA	WISTRES	QQYSRLPLS	nd	0/3	1/9
KSSQSVLYLSRNKNSVA	WYSYRES	QQYHRLPLS	nd	0/3	0/9
KSSQAVWYESRNKNSVA	WESTRES	QQYHRLPLS	290 nM	3/3	1/9
KSSQSVLYESRNKNSVA	WFSTREW	QQYHRLPLS	720 nM	1/3	1/9
KSSQSVLYESRNKNSVA	WKSTELS	QQYHRLPLS	nd	0/3	0/9
KSSQSVLYESRNKNSVA	WVSTRES	QQYHYLPLS	650 nM	1/3	2/9
KSSQSVLYESRNKNSVA	WNSTRES	QQYHRLPLS	nd	0/3	2/9
KSSQSVLYESRNKNVVA	WKSRRES	QQYHRLPLS	34 µM	2/3	3/9
KSSQSVLYESRNKNSVA	WLSTRES	QKGHRLPLS	23 µM	3/3	5/9
KSSQSVLYESRNKNSVS	WHSTRES	QQYHRTPLS	11 µM	2/3	1/9
KSSSSVLYESRNKNSVA	WVSTREV	QQYHRLPLS	22 nM	3/3	4/9
KSSQSVLYESRCKNSVA	WHSTREP	QQYHRLPLS	170 µM	1/3	1/9
PSSQSVLYESRNKNSVA	WCSTRYS	QQYHRLPLS	nd	0/3	2/9
KSSQSDLYESRNKNSVW	WYSTRES	QQYHRLPLS	250 µM	1/3	4/9
KSSQSVLYESRNKNSVY	WDSTRES	QTYHRLPLS	4.0 µM	2/3	3/9
KSSQSVLYESRNKASVA	WRSTRES	QQYHRLPLD	nd	0/3	0/9
KSSQSVLYESRNKNSTA	WCSTRES	QQYHRLPLS	nd	0/3	0/9
KSSQSVQYESRNKNSVA	WISTRES	QQYHRYPLS	130 nM	3/3	3/9
KSSQSVLYESRNKNSVA	WESTRES	QQYHRLPRS	nd	0/3	0/9
KSSQSVLYDSRNKNSVA	EDSTRES	QQYHRLPLS	1.4 nM	3/3	0/9
KSSQSVLAESRNHNSVA	WVSTRES	QQYHRLPLS	30 nM	3/3	4/9
KSMQSVLYEYRNKNSVA	WRSTRES	QQYHRLPLS	nd	0/3	3/9
KSSQSVLYKSRNKNSVA	WMSTRES	QQYHRLPLS	4.3 µM	3/3	4/9
KSSQSVNIESRNKNSVA	WTSTRES	QQYHRLPLS	32 nM	3/3	2/9
KSSQSVLYENRNRNSVA	WQSTRES	QQYHRLPLS	37 nM	3/3	0/9
KSSQSVLYESRNKASVA	WGSTRES	QQYHRLPLS	2.6 nM	3/3	1/9
KSRQSVLYEYRNKNSVA	WISTRES	QQYHRLPLS	nd	0/3	0/9
KSIQSVLYESRQKNSVA	WFSTRES	QQYHRLPLS	nd	0/3	0/9
KSSQSVLYHSRNKNSVA	WKSTRES	QQRHRLPLS	nd	0/3	1/9
KSSQSVLYESRNKNSVA	WLSTRES	QQYARLPSS	1.0 µM	3/3	1/9
KSAQSVLYESRNKNSVA	WKSTRES	QQMHRLPLS	7.9 µM	1/3	1/9
KSSQSVLYESRNKNSVA	WCYTRES	QQYHRLPLF	nd	0/3	5/9
KSIQSVLYETRNKNSVA	WQSTRES	QQYHRLPLS	6.7 µM	1/3	1/9
KSSQSVLYESRNSNSVA	WISTDES	QQYHRLPLS	14 µM	1/3	1/9
KSSQSVLYESCNKNSVH	WCSTRES	QQYHRLPLS	nd	0/3	1/9
KSSQSVLYESRNKNSVA	WCSTRES	QCYHRLPLS	5.0 µM	1/3	4/9
KSSQSVLYESRNKNSVA	CMSTRES	QQQHRLPLS	46 µM	1/3	3/9
KSSQSVLYESRNKNSVA	CSSTRES	QQYHRLPLS	500 nM	3/3	0/9
KSSQSVLYESRNKNWVA	WIETRES	QQYHRLPLS	nd	0/3	1/9
KASQSVLYESRNKNSVA	WPSTRES	QQYHRLVLS	12 µM	2/3	1/9
KSQQSVLYESRNKNSVA	WWSTRES	QQYHRLPLS	nd	0/3	0/9
KSSQSVLYESRNKNSVA	WPSTRES	QQYHRLFLS	nd	0/3	0/9
KSSQSVLYESRNKNSVA	WESTAES	GQYHRLPLS	nd	0/3	0/9
KSSQSVLYESRNKNSVA	WTSTGES	QQYHKLPLS	nd	0/3	0/9
KSSQSVLYESRNKNSVA	WCSTRES	QQYHRLPLS	nd	0/3	0/9
KSSESVLYEGRNKNSVA	WRSTRES	QQYHRLPLS	69 nM	3/3	4/9
KSSQSVLYESRNKNSVA	WTSPRES	QQYHRLPSS	nd	0/3	2/9
KHSQSVLYESRNKNSVA	WQSTRES	QQYHRLTLS	68 µM	1/3	2/9
KSSQKVLYESRNKNSVA	WWETRES	QQYHRLPLS	83 µM	1/3	3/9
KSSQSVLYTSRNKNSVA	WSSTRES	QQYHRLPDS	430 µM	2/3	2/9
KFSQSVLYESRNKNSVA	WNSTRQS	QQYHRLPLS	55 nM	3/3	0/9
KSSQSVLYELRNKNSVA	WQSTREW	QQYHRLPLS	nd	0/3	1/9
KSSQSVLYESRNKNSVA	WISTREF	QQYHRLPLS	nd	0/3	1/9
KSSQSVLYESRNKNSCA	WDSTRLS	QQYHRLPLS	6.2 µM	2/3	1/9
KSSQSVLYCSRNKNPVA	WMSTRES	QQYHRLPLS	nd	0/3	4/9
KNSQSVLYESRNKNSVA	WQSTRES	QQQHRLPLS	5.3 µM	1/3	2/9
KSSQSVLYESRNKNSVA	WGSTSES	IQYHRLPLS	nd	0/3	4/9

Repeated from above, the 11 best binders with a signal in all replicates:

CDR-L1	CDR-L2	CDR-L3	Kd	seen in	signal with controls
KSSQSVLYDSRNKNSVA	EDSTRES	QQYHRLPLS	1.4 nM	3/3	0/9
KSSQSVLYESRNKASVA	WGSTRES	QQYHRLPLS	2.6 nM	3/3	1/9
KSSQSCLYESRNKNSVA	HGSTRES	QQYHRLPLS	14 nM	3/3	2/9
KSSSSVLYESRNKNSVA	WVSTREV	QQYHRLPLS	22 nM	3/3	4/9
KSSQSVLAESRNHNSVA	WVSTRES	QQYHRLPLS	30 nM	3/3	4/9
KSSQSVNIESRNKNSVA	WTSTRES	QQYHRLPLS	32 nM	3/3	2/9
KSSQSVLYENRNRNSVA	WQSTRES	QQYHRLPLS	37 nM	3/3	0/9
KFSQSVLYESRNKNSVA	WNSTRQS	QQYHRLPLS	55 nM	3/3	0/9
KSSESVLYEGRNKNSVA	WRSTRES	QQYHRLPLS	69 nM	3/3	4/9
KSSQSVLYMSCNKNSVA	WGSTRES	QQYHRLPLS	70 nM	3/3	4/9
KSSQSVQYESRNKNSVA	WISTRES	QQYHRYPLS	130 nM	3/3	3/9